Columns and labels:
α2C receptor [1] = biological target: T1, α2C receptor (Homo sapiens, UniProt P18825); experiment: Efficacy agonist activity (Emax, GTPγS assay) at α2C; details: by definition: efficacy at α2C <30% Emax (GTPγS assay) and Ki at α2C <500 nM
Procedure: Efficacy agonist activity values (Emax, GTPγS assay) for α2A and α2C were determined by following the general procedure detailed by Umland et. al (“Receptor reserve analysis of the human α2c-adrenoceptor using [^35S]GTPγS and cAMP functional assays” European Journal of Pharmacology 2001, 411, 211-221). For the purposes of the present invention, a compound is defined to be a specific or at least functionally selective agonist of the α2C receptor subtype if the compound's efficacy at the α2C receptor is ≧30% Emax (GTPγS assay) and its efficacy at the α2A receptor is ≦35% Emax (GTPγS assay). Additionally, for the purposes of this invention, a compound is defined to be an antagonist of the α2C receptor subtype if the compound's efficacy at the α2C receptor is <30% Emax (GTPγS assay) and the Ki at the α2C receptor subtype was <500 nM, preferentially <200 nM, and most preferentially <20 nM.

Protein sequences, listed by entry. Tags and fused reporters are not part of them.
UniProt P18825, whole entry: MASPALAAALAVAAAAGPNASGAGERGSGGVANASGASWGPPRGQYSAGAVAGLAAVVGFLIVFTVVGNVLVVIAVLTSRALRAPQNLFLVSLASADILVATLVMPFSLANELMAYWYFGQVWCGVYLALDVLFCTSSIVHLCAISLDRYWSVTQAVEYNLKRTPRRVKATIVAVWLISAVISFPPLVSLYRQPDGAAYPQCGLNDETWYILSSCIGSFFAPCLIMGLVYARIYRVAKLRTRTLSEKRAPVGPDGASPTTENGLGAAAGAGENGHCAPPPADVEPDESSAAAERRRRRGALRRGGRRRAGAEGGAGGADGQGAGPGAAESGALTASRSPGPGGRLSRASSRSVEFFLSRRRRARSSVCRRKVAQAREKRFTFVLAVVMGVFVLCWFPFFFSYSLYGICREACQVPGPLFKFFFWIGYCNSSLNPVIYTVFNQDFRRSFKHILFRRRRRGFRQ

α2C receptor [2] = biological target: T1, α2C receptor; experiment: Ki at the α2C receptor subtype (binding inhibition); details: read-out: Ki at the α2C receptor subtype

## C[C@H]1N=C(N)O[C@@]12CCc1c(cccc1-c1cncnc1)C2
α2C receptor [1]
  evaluated to be an antagonist of the α2C receptor subtype: antagonist
α2C receptor [2]
  Ki: < 200 nM

Reference: patent US20130079271A1, “REVERSED BIARYL SPIROAMINOOXAZOLINE ANALOGUES AS ALPHA2C ADRENERGIC RECEPTOR MODULATORS” (priority 2009, published 2013)
